Data taken from US9073858B2, “Methods of targeted drug development” (priority 2010, dated 2015).

Test system: annexin V in A549 cells
Settings: reference 4.0 μM camptothecin or 1.0 μM staurosporin
Excerpt: Assays that measure apoptosis are utilized to determine whether or not compounds can induce programmed cell death in cancer cells. Annexin V is a protein that is used to detect apoptosis by binding to phosphatidylserine expressed on membranes of dead or dying cells. Fluorescently tagged with FITC, it can he used in conjunction with 7-aminoactinomycin D to determine the percentage of cells undergoing apoptosis via flow cytometry. Cells in early apoptosis will emit an FITC signal which will eventually be replaced by the far red 7-AAD signal that is associated with cell membrane permeability due to necrosis.
In brief, for the Annexin V Assay, compounds were added to cells plated in 6-well plates. Treated cells were incubated for up to 30 hours before addition of fluorescent cell marker probes that detect the presence of annexin V. The percentage of cells undergoing apoptosis and necrosis were determined by flow cytometry.
On day 2, working solutions of compounds (at 1000×) were prepared. […]
For flow cytometry analysis of the Annexin V Assay, sample acquisition was on the BD LSR II manufactured by BD Biosciences, San Jose, Calif. […] Percent (%)Total apoptosis was calculated as early (quadrant 4)+late (quadrant 2). Percent (%) ratio apoptosis was calculated as (experimental-No treatment/positive control)*100. […]

For `Cc1cc(Cl)cnc1NC(c1cccc(Cl)c1Cl)c1ccc2cccnc2c1O` (centres unmarked) [AD4-13147], the “% Relative to Reference Cpd.” value (1 μM) was 95% and the “% Relative to Reference Cpd.” value (10 μM) was 92%.

Where two headings read alike, the source gives them in different places.
